Shown are actives, neighbours in structure and some others; about 2.8% of the full set was active somewhere.
esBAF inh: inhibitors of esBAF chromatin remodeling in mouse ES cells; 350,000 compounds, 2% hits; reporter increase, % at 12.5 µM; Bmi1-luciferase knock-in reporter, 24 h; 100% = twice the neutral-well signal; in the data active = activation above about 40%;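 note: a rise in the Bmi1 reporter signal indicates esBAF inhibition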
E-sel inducer: induces E-selectin expression in human endothelial cells; 260,000 compounds, 0.37% hits; P16581; AID 686992; HUVEC E-selectin immunofluorescence imaging; normalized: neutral wells 0, TNF-alpha wells 100; activation, % at 7.58 µM;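 active = mean E-selectin-positive cell signal at least 10% of the positive control, reached in at least 60% of replicates, without over 20% cell loss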
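Assay system: HUVEC primary endothelial cells. Input: 3,000 HUVEC seeded per well. Doses: one compound dose added by pin transfer. Read-out basis: % PE-positive cells. Benchmarks: TNF-alpha high, DMSO low. Detection: immunofluorescence imaging. Buffer or medium: EGM-2, gelatin.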
PGC1a acetyl inh: lowers PGC1a acetylation signal in U2OS cells | inhibition, % at 15.6 µM | AID 651687 | AlphaScreen anti-acetyl-lysine; with virally co-expressed GCN5 acetyltransferase | 350,000 compounds, 0.17% hits;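 active = every replicate shows inhibition of at least 40%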
PglD DTNB: PglD (C. jejuni) enzyme inhibition | purified PglD enzyme, DTNB colorimetric CoA detection | inhibition, % at 12.5 µM | 360,000 compounds, 0.098% hits | AID 602405; in the data active = inhibition above about 16%, passing the limit was not always enough
Yeast UUG start: modulators of yeast start codon fidelity, primary screen, whole organism, S. cerevisiae, single point, plate reader. S. cerevisiae UUG-firefly luciferase reporter, luminescence/redox ratio. activity score, % at 18.7 µM. hit rate 0.13% among 350,000;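 active = replicate mean at a twofold rise or more, about +100% in these data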;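 also: firefly luciferase made from a UUG start codon reports start codon fidelity; reporter light over untreated wells divided by growth signal over untreated wells; some hits fall short of that in this replicate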
C2C12 statin: suppressors of simvastatin-induced myotoxicity in C2C12 myotubes | ATP luminescence, 48 h; scaled: DMSO 0, geranylgeraniol control 100 | rescue of ATP level, % at 7.49 µM | 330,000 compounds, 0.78% hits;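 active = mean ATP rescue above about 67%, or every replicate alone reaching that limit, limit read from the data, passing the limit was not always enough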;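 note: myotubes were challenged with 10 µM simvastatin during compound exposure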
PglD inh SP: confirmation of Campylobacter jejuni PglD acetyltransferase inhibitors; shares compounds with PglD DTNB; 320 tested, under 10 active; Purified C. jejuni PglD, DTNB absorbance 412 nm; inhibition, % at 20 µM;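 active = mean inhibition across replicates of at least 20% with every single replicate also at 20% or more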;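 note: initial rate of CoA release by acetyl transfer from AcCoA to the UDP-4-amino sugar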
Of the large screens only hits and unclear results are named; the others gave an inactive call (follow-up assays come after a bar, where they were run).

O=C(c1cc(-c2ccc(Cl)cc2)on1)N1CCOCC1	PglD DTNB 23.9 (no result: E-sel inducer) | PglD inh SP inactive
O=C(c1cc(-c2ccc(F)cc2)on1)N1CCOCC1	none (no result: E-sel inducer, PGC1a acetyl inh)
O=[N+]([O-])c1ccc(O)c(-c2cc(C(F)(F)F)nc(-c3ccccc3)n2)c1	PglD DTNB 24.6 (no result: PGC1a acetyl inh) | PglD inh SP inactive
Oc1ccccc1-c1cc(C(F)(F)C(F)F)nc(-c2ccccc2)n1	none (no result: E-sel inducer)
Cc1nc([N+](=O)[O-])c(Sc2nc3ccccc3n2C)n1Cc1ccccc1	PglD DTNB 29.9 (no result: esBAF inh, C2C12 statin) | PglD inh SP inactive
C[C@@H]1CN([C@@H](C)CO)C(=O)c2cc(NC(=O)Nc3cccc4ccccc34)ccc2O[C@@H](C)CCCCO[C@H]1CN(C)CC1CCCCC1	none (no result: C2C12 statin)
Cc1cccc2cc(C3CC(c4ccco4)=NN3C(=O)CCC(=O)O)c(Cl)nc12 (stereo not drawn)	PglD DTNB 23.4 (no result: esBAF inh, PGC1a acetyl inh, C2C12 statin) | PglD inh SP inactive
Cc1ccc2nc(Cl)c(C3CC(c4ccco4)=NN3C(=O)CCCC(=O)O)cc2c1 (stereo not drawn)	none (no result: esBAF inh, E-sel inducer, PglD DTNB, Yeast UUG start, C2C12 statin)
Cc1ccc2cc(C3CC(c4ccco4)=NN3C(=O)CCCC(=O)O)c(Cl)nc2c1 (stereo not drawn)	PglD DTNB 34.2 | PglD inh SP inactive
COc1ccc2nc(Cl)c(C3CC(c4ccco4)=NN3C(=O)CCC(=O)O)cc2c1 (stereo not drawn)	none (no result: E-sel inducer, PGC1a acetyl inh, PglD DTNB, Yeast UUG start)
C[C@H]1CN([C@@H](C)CO)C(=O)c2ccccc2-c2ccccc2CO[C@H]1CN(C)S(=O)(=O)c1cn(C)cn1	none (no result: Yeast UUG start, C2C12 statin)
Cc1ccc(S(=O)(=O)Nc2ccc3c(c2)C(=O)N([C@H](C)CO)C[C@@H](C)[C@@H](CN(C)Cc2ccccc2)OCCCC[C@H](C)O3)cc1	none (no result: E-sel inducer, C2C12 statin)
C[C@H](CO)N1C[C@H](C)[C@@H](CN(C)Cc2ccncc2)Oc2c(NC(=O)c3cnccn3)cccc2C1=O	none
CCOc1cccc(CN(CC)CC2CCCN(CCc3cccc(OC)c3)C2)c1O (stereo not drawn)	none
CCN(Cc1cccc(OC)c1)CC1CCCN(CCc2cccc(OC)c2)C1 (stereo not drawn)	PglD DTNB 22.2 (no result: E-sel inducer) | PglD inh SP inactive
O=C(NCc1ccco1)Oc1ccccc1	PglD DTNB 21.3 (no result: E-sel inducer) | PglD inh SP inactive
COc1ccc(-c2n[nH]c(=S)n2N)c(OC)c1	PglD DTNB 21.2 (no result: E-sel inducer) | PglD inh SP inactive
CC(C)c1nc2ccc(NC(=O)C3CCCCC3)cc2[nH]1	PglD DTNB 33.6 (no result: E-sel inducer) | PglD inh SP inactive
O=C(Nc1ccc2nc(-c3ccccn3)[nH]c2c1)C1CCCCC1	none (no result: esBAF inh, E-sel inducer, C2C12 statin)
CCC(OC(=O)CNS(=O)(=O)c1ccccc1)C(=O)c1ccccc1 (stereo not drawn)	PglD DTNB 20.1 | PglD inh SP inactive
CCOc1cc(N2CCOCC2)c(OCC)cc1NC(=O)COC(=O)COc1ccc(C#N)cc1	PglD DTNB 33.3 (no result: PGC1a acetyl inh) | PglD inh SP inactive
CCOc1cc(N2CCOCC2)c(OCC)cc1NC(=O)COC(=O)COc1cc(C)cc(C)c1	none (no result: esBAF inh)
O=C(Nc1cccc(F)c1)N1C[C@@H]2[C@H](c3ccccc31)[C@H](CO)N2C(=O)C1CCOCC1	none
O=C(Nc1cccnc1Cl)c1cc([N+](=O)[O-])ccc1Cl	none
Cc1ccc([N+](=O)[O-])c(C(=O)Nc2cccnc2Cl)c1	PglD DTNB 20.8 (no result: E-sel inducer) | PglD inh SP inactive
CCn1c(SCC(=O)Nc2ccc3c(c2)OCCO3)nnc1-c1ccccn1	PglD DTNB 76.5 (no result: E-sel inducer) | PglD inh SP inactive
CO[C@@H](CN(C)S(=O)(=O)c1cn(C)cn1)[C@@H](C)CN(C(=O)Nc1ccc(F)cc1)[C@H](C)CO	none (no result: Yeast UUG start)
Cc1ccccc1S(=O)(=O)NC(=O)C1(C)CCN1C(=O)CCc1cccs1 (stereo not drawn)	none (no result: Yeast UUG start)
CCCCc1ccc(S(=O)(=O)NC(=O)C2(C)CCN2C(=O)CCc2cccs2)cc1 (stereo not drawn)	PglD DTNB 68.9 (no result: PGC1a acetyl inh) | PglD inh SP inactive
O=C(NC1CCC1)[C@H]1[C@H](CO)[C@H]2Cn3c(ccc(-c4ccc(F)cc4)c3=O)[C@@H]1N2	none (no result: PGC1a acetyl inh, Yeast UUG start)
CC1CCN(C(=O)COc2ccc(S(=O)(=O)N3CCCC3)cc2)CC1	none (no result: E-sel inducer)
